RAD52 anneal inh: RAD52 (human) annealing inhibition | P43351 | recombinant RAD52 DNA annealing, FRET fluorescence | inhibition, % at 18.7 µM | 0.46% of 360,000 active;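 active means every replicate showing at least 50% inhibition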
SIRT5 inh: blocks human SIRT5 desuccinylation of peptide | 1.1% of 330,000 active | inhibition, % at 15 µM | Purified SirT5, succinyl-peptide AMC, trypsin-coupled fluorescence | Q9NXA8; in the data active means inhibition above about 15%
RAD54 inh: blocks human RAD54 Holliday junction branch migration. inhibition, % at 10.4 µM. 0.14% of 360,000 active. FAM/BHQ fluorescence. Q92698;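 active means mean normalized replicate activity at least 40 and at least half of replicates scoring 40 or more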;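 further: inhibitors cause a drop in the FAM fluorescence signal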
MLL AF4-AF9 inh: inhibitors of human MLL-AF4/AF9 interaction. P42568. AlphaScreen, biotin-AF4 peptide binding to FLAG-AF9. inhibition, % at 10 µM. AID 651704. 0.47% of 350,000 active;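 active means every replicate reaching a set inhibition limit, whatever the replicate mean, cut at about 25% in these data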
E-sel inducer: E-selectin induction on HUVECs; 0.37% of 260,000 active; P16581; HUVEC E-selectin immunofluorescence imaging; normalized: neutral wells 0, TNF-alpha wells 100; activation, % at 7.58 µM;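 active means mean E-selectin-positive cell signal at least 10% of the positive control, reached in at least 60% of replicates, without over 20% cell loss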
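material = human umbilical vein endothelial cells (HUVEC), E-selectin induction | quantity = 3,000 cells/well | medium = EGM-2 growth medium on 0.1% gelatin-coated wells | technique = immunofluorescence imaging | read-out basis = % PE-positive cells | control set = TNF-alpha positive control, DMSO neutral control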
UUG fidelity: alters start codon recognition fidelity in yeast; S. cerevisiae UUG-firefly luciferase reporter, luminescence/redox ratio; activity score, % at 18.7 µM; actives 0.13% (n = 350,000); AID 602363;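 active = replicate mean at a twofold rise or more, about +100% in these data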;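 also: firefly luciferase made from a UUG start codon reports start codon fidelity; reporter light over untreated wells divided by growth signal over untreated wells; some hits fall short of that in this replicate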
Numbers stand for hits; - = inactive; . = no result; ! = repeats disagree. In the library only some 1.8% were active in any assay of this set; here they are far more common.

SMILES	RAD52 anneal inh	SIRT5 inh	RAD54 inh	MLL AF4-AF9 inh	E-sel inducer	UUG fidelity
CO[C@@H]1CN(C)C(=O)c2ccc(NC(=O)c3cc(C)on3)cc2OC[C@@H](C)N(C(=O)C2CC2)C[C@@H]1C	-	-	.	-	-	.
CN(C)c1ccc(/C=C/C=N/Nc2nc(N3CCOCC3)nc(N3CCOCC3)n2)cc1	-	-	-	-	63.0	-
Cc1ccc(-c2n[nH]c(=S)n2/N=C/c2cccs2)cc1	-	28.9	-	-	-	-
Cc1ccc(-n2cc(CNCCc3ncc(C)[nH]3)c(-c3ccc(F)cc3)n2)cc1	-	-	.	28.0	-	.
C[C@H](C(O)c1ccccc1)N(C)C(=O)CN (stereo partly specified)	-	-	-	-	-	-
C[C@H]([C@H](O)c1ccccc1)N(C)C(=O)CN	-	21.3	-	-	-	-
NC(=O)CC(NC(=O)Cc1cccc2ccccc12)c1ccc(NC2CCN(Cc3ccccc3)CC2)c([N+](=O)[O-])c1 (stereo unspecified)	-	-	-	53.6	-	-
NC(=O)CC(NC(=O)Cc1ccc(Br)cc1)c1ccc(NC2CCN(Cc3ccccc3)CC2)c([N+](=O)[O-])c1 (stereo unspecified)	-	.	-	-	-	-
COc1ccccc1-c1cn(CC[C@@H]2CC[C@H](NS(=O)(=O)c3ccccc3C)[C@@H](CO)O2)nn1	-	-	-	-	-	-
O=C(c1cc2nc(-c3ccccc3)cc(C(F)(F)F)n2n1)N1CCCC1	-	21.3	.	-	-	.
CN1CCN(C(=O)c2cc3nc(-c4ccccc4)cc(C(F)(F)F)n3n2)CC1	.	.	-	.	.	-
C[C@@H]1CN([C@H](C)CO)C(=O)c2cccc(NS(=O)(=O)c3ccc(F)cc3)c2O[C@H]1CN(C)S(=O)(=O)c1ccc(F)cc1	-	-	-	-	-	-
O=C(Nc1ccc(F)cc1)N[C@@H]1CC[C@H](CCNS(=O)(=O)c2ccccc2F)O[C@H]1CO	-	-	-	-	-	-
C[C@@H]1CN([C@H](C)CO)C(=O)Cc2cc(NC(=O)CCC(F)(F)F)ccc2O[C@@H]1CN(C)S(C)(=O)=O	.	.	.	.	38.8	.
C[C@@H]1CN([C@@H](C)CO)C(=O)Cc2cc(NC(=O)CCC(F)(F)F)ccc2O[C@H]1CN(C)S(C)(=O)=O	-	-	-	-	-	-
C[C@H](CO)N1C[C@H](C)[C@@H](CN(C)Cc2ccc(Cl)c(Cl)c2)Oc2ccc(NC(=O)CCC(F)(F)F)cc2CC1=O	-	20.3	-	-	-	-
C[C@H](CO)N1C[C@H](C)[C@@H](CN(C)S(=O)(=O)c2ccc3ccccc3c2)OCc2cnnn2CCCC1=O	-	21.3!	-	-	-	-
C[C@H](CO)N1C[C@H](C)[C@H](CN(C)S(=O)(=O)c2ccc(Cl)cc2)OCc2cnnn2CCCC1=O	-	15.4!	-	-	-	-
C[C@H]1CN([C@@H](C)CO)C(=O)CCCn2nncc2CO[C@@H]1CN(C)S(=O)(=O)c1ccc2ccccc2c1	-	-	-	-	-	-
C[C@H](CO)N1C[C@H](C)[C@@H](CN(C)S(=O)(=O)c2ccc(Cl)cc2)OCc2cnnn2CCCC1=O	-	-	-	-	-	-
C[C@@H]1CN([C@H](C)CO)C(=O)CCCn2nncc2CO[C@@H]1CN(C)S(=O)(=O)c1cccc(F)c1	-	15.1!	-	-	-	-
Cc1cccc(S(=O)(=O)N(C)C[C@H]2OCc3cnnn3CCCC(=O)N([C@@H](C)CO)C[C@@H]2C)c1	-	-	-	-	-	-
Cc1cccc(S(=O)(=O)N(C)C[C@H]2OCc3cnnn3CCCC(=O)N([C@H](C)CO)C[C@@H]2C)c1	-	20.8!	-	-	-	-
O=C(C[C@@H]1CC[C@H](NC(=O)Cc2ccccn2)[C@@H](CO)O1)NCCCN1CCOCC1	-	-	-	-	-	-
C[C@@H]1CN([C@@H](C)CO)C(=O)c2cc(NC(=O)CCC(F)(F)F)ccc2O[C@@H](C)CCCCO[C@@H]1CN(C)C	.	.	.	.	-	.
CCNC(=O)C[C@@H]1CC[C@@H](NS(=O)(=O)c2ccc(F)cc2)[C@H](CO)O1	-	-	-	-	-	-
CC(c1nnc(SCC(=O)N(C)C2CCS(=O)(=O)C2)n1-c1ccccc1)N(C)C (stereo unspecified)	-	-	-	33.6	.	-

High-throughput results from PubChem.
